Assay results reported in patent EP4703362A1 (Chengdu Sibeibo Pharmaceutical Technology Co., Ltd, priority 2023, dated 2024).

Target: T1, CGRP receptor (Homo sapiens, UniProt O60894+Q16602)
T1 construct: A tissue homogenate of SK-N-MC cell membrane was used as a receptor source; host or cells: SK-N-MC (membrane preparation)
Assay: Competitive binding determination of in-vitro [125I] CGRP
Conditions: Ki (compound)/Ki (Zavegepant)
Experimental: The ability of the compound to compete for a radiolabelled endogenous peptide human αCGRP ([^125I] CGRP) was determined.
The SK-N-MC cells endogenously expressed a CGRP receptor with the same sequence as the human CGRP receptor. A tissue homogenate of SK-N-MC cell membrane was used as a receptor source, and the radiolabelled endogenous peptide human αCGRP ([^125I] CGRP) and the compound competitively bound with the receptor source. After washing the unbound part of [^125I] CGRP, the binding of the reaction compound on the receptor could be detected by a radioactive signal.
3.1 Experimental cell line: SK-N-MC (human neuroepithelioma cells) from Cell Resource Center, Peking Union Medical College 3.2 Detection equipment: MicroBeta2 (PerkinElmer), and […]-96 well cell collector (PerkinElmer, C961961) 3.3 Experimental reagents and consumables
3.4 Experimental steps • 3.4.1 Extraction and quantification of membrane protein: fresh SK-N-MC cells were collected. The cell pellet was resuspended with an experimental buffer (Tris-HCl 50 mM, pH 7.4). The cells were homogenized 10 times by a homogenizer, and centrifuged at 1000 g and 4°C for 10 minutes, then nuclear/mitochondrial fragments were removed, and a supernatant tissue homogenate was collected. […] A ^3H signal was captured by a MicroBeta2 Reader counting filter. • 3.4.3 Data analysis
Data were analyzed by Prism 5.

SMILES: Cc1cc(C[C@@H](NC(=O)N2CCC(c3cc4c([nH]c3=O)SCC4)CC2)C(=O)N2CCN(C3CCN(C)CC3)CC2)cc2cn[nH]c12 [Example 8, (R)-N-(3-(7-methyl-1H-indazole-5-yl)-1-(4-(1-methylpiperidine-4-yl)piperazine-1-yl)-1-oxopropan-2-yl)-4-(6-oxo-2,3,6,7-tetrahydrothieno[2,3-b]pyridine-5-yl)piperidine-1-formamide]
- Ki ratio: 0.23
